In PubChem BioAssay AID743398 (Broad Institute, 2014) one finds activation data, which are given here for 2 compounds.

The structures appear in SMILES notation. Only a part is listed here, and it is no random draw. Calls of active or inactive are those of the source. Cut-off read from the data, not from the text of the source: active = activation above about 30% (passing the limit was not always enough); inconclusive = no clear call, values can overlap the other calls.

The assay can be described thus: activation of beta-catenin signaling reporter – cell-based, plate reader, single point, primary screen (AID 743398).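 Note: 0% = neutral control wells and 100% = positive control wells.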 To be noted: Wnt/beta-catenin reporter cell assay, activator, at 9.35 µM, active compounds read high.
Regarding `CCC(=O)N(c1ccccc1)C1(COC)CCN(CCn2nnn(CC)c2=O)CC1`, the activation was inactive: -1.7%.

As for `CCC(=O)N(c1ccccc1)C1(COC)CCN(CCc2cccs2)CC1`, the activation was inactive: 1.17%.
